Assay results from patent US10995119B2, “Peptide exhibiting hydrolytic activity and use thereof” (Okinawa Institute of Science and Technology School …, priority 2016, dated 2021).

Protein sequences, listed by entry. Tags and fused reporters are not part of them. Residues count along the entry.
UniProt P05067, 672-691 limits assumed: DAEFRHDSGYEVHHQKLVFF

Target: Aβ1-20 (Homo sapiens, UniProt P05067)
Experiment: Hydrolysis activity against Aβ1-20
Settings: Tris buffer solution (50 mmol/l, pH 7.5); 3 or 5 days

For KYEGHWYPEKPYKGSGFRCIHI [JAL], the “hydrolysis activity against Aβ1-20” value was “exhibited activity”.
